Results reported in patent US20180140578A1, “METHODS AND COMPOSITIONS FOR THE DIAGNOSIS AND SELECTIVE TREATMENT OF CANCER” (Board of Regents of the University of Texas System, priority 2016, published 2018).

Sequences of proteins named here, by UniProt entry; tags and fusion partners are left off. A change or cut given only in a name is not applied to a line headed by its entry.
UniProt Q14498: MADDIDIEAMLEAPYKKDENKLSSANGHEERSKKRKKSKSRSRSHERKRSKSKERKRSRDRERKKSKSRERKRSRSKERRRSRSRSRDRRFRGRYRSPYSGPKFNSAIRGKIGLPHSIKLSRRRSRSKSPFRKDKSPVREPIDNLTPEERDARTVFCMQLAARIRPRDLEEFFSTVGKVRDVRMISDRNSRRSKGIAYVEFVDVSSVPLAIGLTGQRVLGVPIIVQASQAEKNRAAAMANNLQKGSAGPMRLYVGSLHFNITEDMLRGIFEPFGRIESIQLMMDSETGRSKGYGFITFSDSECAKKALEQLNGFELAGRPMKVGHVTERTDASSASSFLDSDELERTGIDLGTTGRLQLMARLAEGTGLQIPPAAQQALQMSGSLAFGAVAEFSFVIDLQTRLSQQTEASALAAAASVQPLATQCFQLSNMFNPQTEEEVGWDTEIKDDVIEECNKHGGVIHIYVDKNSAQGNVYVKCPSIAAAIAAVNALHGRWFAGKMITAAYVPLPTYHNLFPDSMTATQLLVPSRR

Columns and labels:
RBM39-3xFLAG (human) [1] = molecular target: RBM39-3xFLAG (human) (UniProt Q14498); experiment: anti-FLAG IP of RBM39-3xFLAG from H1155 cells treated with 10 µM indisulam, LC-MS/MS
RBM39-3xFLAG (human) [2] = molecular target: RBM39-3xFLAG (human) (UniProt Q14498); experiment: anti-FLAG IP of RBM39-3xFLAG from H1155 cells treated with DMSO (no indisulam), LC-MS/MS

indisulam total (peptide count) (RBM39-3xFLAG (human) [1]): 4 peptides
indisulam unique (peptide count) (RBM39-3xFLAG (human) [1]): 4 peptides
DMSO total (peptide count) (RBM39-3xFLAG (human) [2]): 0 peptides
DMSO unique (peptide count) (RBM39-3xFLAG (human) [2]): 0 peptides
Substance: PPIA (from UniProt P62937 1-165)
